Laboratory results as given in PubChem BioAssay AID1020 (Sanford-Burnham Center for Chemical Genomics, 2008).
The entries are a selection whose mix differs from that of the whole data set. Active and inactive are the calls of the source. Cut-off read from the data, not from the text of the source: active = inhibition above about 50%; inactive = the rest.

System: glucose-6-phosphate dehydrogenase [Leuconostoc mesenteroides]
Test: L. mesenteroides G6PDH inhibitors, counter-screen for G6PDH-coupled screening assays, biochemical, Leuconostoc mesenteroides enzyme (AID 1020)
Details: Purified L. mesenteroides G6PDH, diaphorase/resazurin coupled fluorescence, 45 min; at 5 µM; hits give high values

| Structure (SMILES) | inhibition |
| --- | --- |
| c1ccc(CN2CCC(Nc3ccccc3)CC2)cc1 | inactive: 11.6% |
| N#Cc1ccc(C(=O)NCC2(N3CCCCC3)CCCCC2)cc1 | inactive: 2.1% |
| N/C(=N\O)c1c(N)no[n+]1[O-] | inactive: 2.9% |
| O=C(OC1CN2CCC1CC2)C1c2ccccc2C=Cc2ccccc21 (stereo not given) | inactive: 4.7% |
| COc1ccc(C(=O)NCC2(N3CCOCC3)CCCCC2)cc1OC | inactive: 9.2% |
| COc1cc(OC)cc(C(=O)NCC2(N3CCOCC3)CCCCC2)c1 | inactive: 1.4% |
| CCC(CO)(C(=O)OC1CN2CCC1CC2)c1ccccc1 (stereo not given) | inactive: 5.1% |
| CCOc1ncccc1C(=O)NCC1(N2CCOCC2)CCCCC1 | inactive: 1.9% |
| CC(C)(C)OC(=O)N1CCC(Nc2ccccc2)CC1 | inactive: 4.2% |
| CCN1CCC(Nc2cccc(F)c2)CC1 | inactive: 5.7% |
| CN(C)c1ccc(C(=O)NCC2(N3CCCCC3)CCCCC2)cc1 | inactive: -1.7% |
| Fc1ccccc1NC1CCN(Cc2ccccc2)CC1 | inactive: 12.1% |
| COc1ccc(NC2CCN(CCc3ccccc3)CC2)c(OC)c1 | inactive: 6.5% |
| O=C(NCC1(N2CCOCC2)CCCCC1)c1cc2ccccc2o1 | inactive: 12.2% |
| O=C(OC1CN2CCC1CC2)C1c2ccccc2Oc2ccccc21 (stereo not given) | inactive: 3.8% |
| CCOC(=O)N1CCC(Nc2ccc(OC)cc2)CC1 | inactive: 3.1% |
| COc1ccc(C(=O)NCC2(N3CCCCC3)CCCCC2)c(OC)c1OC | inactive: -1.2% |
| CC(C)c1ccc(NC2CCN(C(=O)OC(C)(C)C)CC2)cc1 | inactive: 3.5% |
| CN(C)c1cccc(C(=O)NCC2(N3CCCCC3)CCCCC2)c1 | inactive: -1.4% |
| COc1ccc(CN(CCCl)CCCl)cc1Cl | inactive: 7.6% |
| O=C(NCC1(N2CCOCC2)CCCCC1)c1cc(=O)[nH]c2ccccc12 | inactive: 2.1% |
| CN1CCN(CCOC(=O)C(O)(c2ccccc2)c2ccccc2)CC1 | inactive: 10.3% |
| COc1ccc(NC2CCN(C(=O)OC(C)(C)C)CC2)cc1 | inactive: 18.7% |
| N#CC1(Nc2ccccc2)CCN(CCc2ccccc2)CC1 | inactive: 6.9% |
| O=C(NCC1(N2CCCCC2)CCCCC1)c1cccc([N+](=O)[O-])c1 | inactive: 5.8% |
